# Key:
# Format in all cases: cell-based
# Escherichia coli NIHJ = assay: MIC, Escherichia coli NIHJ (EC)
# Bacillus cereus IFO 3001 = assay: MIC, Bacillus cereus IFO 3001 (BC)
# Bacillus subtilis = assay: MIC, Bacillus subtilis (BS)
# [1] = tested on: Klebsiella pneumoniae ATCC 10031; assay: MIC, Klebsiella pneumoniae ATCC 10031 (KP)
smiles,measurement,setting,value
"CC[C@H]1OC(=O)[C@H](C)[C@@H](O[C@H]2C[C@@](C)(OC)[C@@H](O)[C@H](C)O2)[C@H](C)[C@@H](O[C@@H]2O[C@H](C)C[C@H](N(C)C)[C@H]2O)[C@@]2(C)CC(C)C3(O[C@@]1(C)[C@H](O)[C@H]3C)O2 (stereo partly shown) [*2 (EM202), Anhydroerythromycin A, reference compound]",MIC EC,Escherichia coli NIHJ,> 100 µg/mL
same,MIC BC,Bacillus cereus IFO 3001,6.25 µg/mL
same,MIC BS,Bacillus subtilis,6.25 µg/mL
same,MIC KP,[1],> 100 µg/mL

# Source: patent US4948782A, “A method of promoting the growth of domestic animals with erythromycin derivative containing composition” (Kitasato Kenkyusho, priority 1987, dated 1990)
